Earlier results, collected in patent US12465608B2, “Osimertinib for use in the treatment of non-small cell lung cancer” (AstraZeneca AB, priority 2019, dated 2025).

Key:
[1] = tested on: patients with advanced mutation-positive EGFR (Ex19del or L858R) NSCLC; details: first-line therapy, FLAURA
[2] = tested on: patients with EGFR mutation-positive NSCLC; details: first line treatment

COc1cc2ncnc(Nc3ccc(F)c(Cl)c3)c2cc1OCCCN1CCOCC1 [gefitinib]
median progression free survival (PFS) [1]: 10.2 months
median PFS [2]: 9.2 months
